Measurements as given in patent publication US12269859B2, “Synthetic immune receptors and methods of use thereof” (Angeles Therapeutics, Inc., priority 2016, dated 2025).
Residue numbers refer to the chain shown, from its start.

B1: 10492 (protein)
chain: MALPVTALLLPLALLLHAARPDVVMTQSPSSLSASVGDRVTITCRASQDISKYLNWYQQKPGKAPKLLIYHTSRLHSGVPSRFSGSGSGTDFTLTISSLQPEDFATYYCQQGNTLPYTFGGGTKVEIKLEDLKNVFPPEVAVFCPSEAEISHTQKATLVCLATGFYPDHVELSWWVNGKEVHSGVSTDPQPLKEQPALNDSRYCLSSRLRVSATFWQNPRNHFRCQVQFYGLSENDEWTQDRAKPVTQIVSAEAWGRADCGFTSESYQQGVLSATILYEILLGKATLYAVLVSALVLMAMVKRKDSRGRAKRSGSGATNFSLLKQAGDVEENPGPTSMDWIWRILFLVGAATGAHSFEQVQLQESGPGLVKPSQTLSLTCTVSGVSLPDYGVSWIRQPPGKGLEWIGVIWGSETTYYNSALKSRVLISVDTSKNQVSLKLSSVTAADTAVYYCARHYYYGGSYAMDYWGQGTTVTVSSTRIQNPDPAVYQLRDCKSSDKSVCLFTDFDSQTNVSQSKDSDVYITDKTVLDMRSMDFKSNSAVAWSNKSDFACANAFNNSIIPEDTFFPSPESSCDVKLVEKSFETDTNLNFQNLSVIGFRILLLKVAGFNLLMTLRLWSS
B2: 10493 (protein)
chain: B1 chain with C144E, D188C, C494S, T524C
B3: 10494 (protein)
chain: B1 chain with C144E, S206C, C494S, T524C

System: IL2
Assay: IL2 ELISA
Assay type: cell-based, human
Settings: IL2 production upon 18 hour co-culture with RAJI cells; Jurkat-NFAT-GFP cells

Row | Molecule | IL2 [pg/mL]
1 | B1 | 0
2 | B2 | 0
3 | B3 | 0
